Earlier results, collected in patent publication US20220183963A1, “IMPLANTABLE DEPOTS FOR THE LOCALIZED, SUSTAINED, CONTROLLED RELEASE OF THERAPEUTIC AGENTS TO TREAT CANCER AND RELATED SYMPTOMS AND CONDITIONS” (Foundry Therapeutics, Inc., priority 2019, published 2022).

Conditions: PVP electrospun nanofiber and 2.5 wt % Tween 20

## maraviroc
  time to complete release of 28 wt % maraviroc: six minutes
